Results: BindingDB's records for doi:10.1021/jm00164a002 (Syntex Research, 1990)

Target: T1, Neutrophil elastase (Homo sapiens, UniProt P08246)
T1 sequence (P08246 whole entry): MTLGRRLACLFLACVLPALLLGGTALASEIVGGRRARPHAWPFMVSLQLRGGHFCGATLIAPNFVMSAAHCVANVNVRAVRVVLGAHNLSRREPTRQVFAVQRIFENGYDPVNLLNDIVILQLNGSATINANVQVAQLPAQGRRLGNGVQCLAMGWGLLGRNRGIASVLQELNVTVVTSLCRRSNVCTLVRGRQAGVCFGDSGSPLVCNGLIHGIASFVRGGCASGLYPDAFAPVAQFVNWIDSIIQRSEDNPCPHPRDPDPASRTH
Test: Component deacylation rate constant for interaction with human leukocyte elastase

- koff: 0.00776 s⁻¹
- kon (read-out: kon (M-1-s-1)): 64600 M⁻¹ s⁻¹
Compound: CCc1cccc2nc(C)oc(=O)c12
